This test deals with Cannabinoid receptor 1 (Homo sapiens, UniProt P21554). Briefly: Agonist activity at human CB1 receptor expressed in HEK293 cells assessed as [35S]GTPgamma binding. In kind it is functional, cell-based.

Protein sequences, listed by entry. Tags and fused reporters are not part of them.
UniProt P21554, whole entry: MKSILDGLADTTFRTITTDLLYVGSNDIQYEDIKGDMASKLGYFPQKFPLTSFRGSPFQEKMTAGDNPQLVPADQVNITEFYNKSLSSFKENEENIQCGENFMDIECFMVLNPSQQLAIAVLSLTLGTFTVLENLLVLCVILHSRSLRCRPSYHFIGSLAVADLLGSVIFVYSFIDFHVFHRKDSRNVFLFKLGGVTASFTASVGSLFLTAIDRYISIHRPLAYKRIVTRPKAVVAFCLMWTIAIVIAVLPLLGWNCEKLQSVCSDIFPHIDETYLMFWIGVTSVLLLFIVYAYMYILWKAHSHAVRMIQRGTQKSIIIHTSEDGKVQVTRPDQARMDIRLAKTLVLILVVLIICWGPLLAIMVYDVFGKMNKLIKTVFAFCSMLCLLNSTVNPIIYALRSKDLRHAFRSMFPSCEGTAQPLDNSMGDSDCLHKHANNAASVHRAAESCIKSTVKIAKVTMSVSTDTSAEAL

pEC50: −log10 of the molar value.

Among the data in ChEMBL document CHEMBL2029249, “N-Methyl-3-(tetrahydro-2H-pyran-4-yl)-2,3,4,9-tetrahydro-1H-carbazole-6-carboxamides as a novel class of cannabinoid receptors agonists with low CNS penetration” (Bioorg Med Chem Lett, 2012) are EC50 values, retold here.

As a reminder, the pEC50 is the EC50 on a negative log10 scale, so that one unit is a factor of ten. In the case of `CCCCCOc1ccc(C(=O)c2cccc3ccccc23)c2ccccc12`, the pEC50 was 7.14.
